Biological target: Neuronal acetylcholine receptor subunit alpha-7 (Rattus norvegicus, UniProt Q05941)
Test: Potency was determined by measuring current activation in Xenopus oocytes expressing rat alpha-7 nAChRs

Chains of the proteins cited; added tags and fusions are not shown. Residues count along the entry.
UniProt Q05941, 23-502 limits assumed: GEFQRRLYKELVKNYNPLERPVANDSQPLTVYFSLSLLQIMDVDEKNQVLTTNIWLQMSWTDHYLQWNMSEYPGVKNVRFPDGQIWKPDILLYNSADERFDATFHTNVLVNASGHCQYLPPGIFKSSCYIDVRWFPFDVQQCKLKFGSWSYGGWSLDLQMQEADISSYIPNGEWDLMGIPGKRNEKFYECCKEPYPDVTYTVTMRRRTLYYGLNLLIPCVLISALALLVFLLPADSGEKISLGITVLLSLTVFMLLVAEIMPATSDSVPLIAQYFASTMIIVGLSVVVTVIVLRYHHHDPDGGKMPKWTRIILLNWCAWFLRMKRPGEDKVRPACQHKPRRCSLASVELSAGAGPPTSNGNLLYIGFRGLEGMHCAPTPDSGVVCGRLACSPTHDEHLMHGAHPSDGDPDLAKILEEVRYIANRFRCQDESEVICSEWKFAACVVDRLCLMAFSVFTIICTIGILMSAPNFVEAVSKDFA

Q: CN1CC2(CN3CCC2CC3)OC1=O (stereo unspecified) was tested. Which EC50 did it give?
A: 6 mM
